Data from ChEMBL document CHEMBL2380216, “Design and selection parameters to accelerate the discovery of novel central nervous system positron emission tomography (PET) ligands and their application in the development of a novel phosphodiesterase 2A PET ligand” (J Med Chem, 2013).

By UniProt entry, the sequences of proteins in these tests, tags left out. Where a name states a change or a piece, a line headed by the entry shows the natural chain unless it says otherwise.
UniProt Q9HCR9: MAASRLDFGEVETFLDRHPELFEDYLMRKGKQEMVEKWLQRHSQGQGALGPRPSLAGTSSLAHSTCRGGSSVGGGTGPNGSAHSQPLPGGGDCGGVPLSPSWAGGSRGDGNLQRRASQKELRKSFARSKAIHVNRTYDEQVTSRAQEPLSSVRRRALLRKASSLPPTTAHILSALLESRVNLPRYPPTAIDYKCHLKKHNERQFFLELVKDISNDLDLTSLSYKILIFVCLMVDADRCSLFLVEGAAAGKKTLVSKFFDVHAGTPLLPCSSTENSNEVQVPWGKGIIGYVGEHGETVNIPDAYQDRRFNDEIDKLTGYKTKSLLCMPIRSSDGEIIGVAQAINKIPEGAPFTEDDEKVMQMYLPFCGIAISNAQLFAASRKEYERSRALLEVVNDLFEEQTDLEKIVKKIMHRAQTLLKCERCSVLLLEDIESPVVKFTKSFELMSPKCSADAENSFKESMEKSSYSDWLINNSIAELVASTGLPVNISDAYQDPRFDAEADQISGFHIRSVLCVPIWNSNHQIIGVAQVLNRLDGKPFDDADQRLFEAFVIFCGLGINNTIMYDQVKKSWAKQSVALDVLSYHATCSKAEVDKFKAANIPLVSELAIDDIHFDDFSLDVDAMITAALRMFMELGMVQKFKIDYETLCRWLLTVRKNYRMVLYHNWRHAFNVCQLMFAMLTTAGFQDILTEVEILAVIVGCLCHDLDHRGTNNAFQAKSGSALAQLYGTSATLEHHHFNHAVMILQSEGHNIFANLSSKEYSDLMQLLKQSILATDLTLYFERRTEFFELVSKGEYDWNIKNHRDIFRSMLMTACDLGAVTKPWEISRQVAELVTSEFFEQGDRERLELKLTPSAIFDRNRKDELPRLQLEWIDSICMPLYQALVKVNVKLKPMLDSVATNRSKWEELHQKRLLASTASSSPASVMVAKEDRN

Target: Dual 3',5'-cyclic-AMP and -GMP phosphodiesterase 11A (Homo sapiens, UniProt Q9HCR9)
Assay: Inhibition of PDE11 (unknown origin)

- IC50: > 10 µM
SMILES: Cc1nc(-c2cnn(C)c2-c2ccc(C(F)(F)F)cc2)c2c(N3CC(F)C3)ncnn12
